# Earlier results in patent publication US20210355435A1, “CULTURE MEDIUM COMPRISING KETO ACIDS” (Evonik Operations GmbH, priority 2018, published 2021).
# Test system: CHO and Hybridoma cell lines
# Conditions: AKG added to commercially available media; cited from earlier work
structure (smiles),measurement,value
"O=C(O)CCC(=O)C(=O)O [AKG, alpha-ketoglutaric acid]",increase of Integrated Viable Cell Density (IVCD),more than 50%
same,increase of maximum Viable Cell Density (VCD),more than 30%
